The test has as its target T1, Renilla luciferase (Renilla reniformis, UniProt P27652).
T1 sequence (P27652 1-311): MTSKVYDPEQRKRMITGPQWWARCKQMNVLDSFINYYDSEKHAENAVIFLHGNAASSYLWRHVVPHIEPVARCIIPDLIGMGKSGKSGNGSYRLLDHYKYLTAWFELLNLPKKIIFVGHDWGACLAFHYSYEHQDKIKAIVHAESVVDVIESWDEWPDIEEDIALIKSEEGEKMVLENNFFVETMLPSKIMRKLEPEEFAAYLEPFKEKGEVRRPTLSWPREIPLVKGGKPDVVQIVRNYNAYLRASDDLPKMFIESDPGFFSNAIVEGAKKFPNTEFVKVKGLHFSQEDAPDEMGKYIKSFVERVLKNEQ
Put plainly: Quench of Renilla luciferase luminescence by competitive inhibitors in detergent-containing quenching reagent (Example 1). Type of test: biochemical. The conditions noted are these: in the presence of lysing detergent and quenching reagent. The procedure: Renilla luciferase (1×10^−9 M in Renilla Luciferase Lysis Buffer (Promega))+0.1% Prionex (PentaPharma) was added to Renilla Luciferase Assay Buffer (Promega) containing 3 μM coelenterazine-h. The initial Renilla luciferase-mediated luminescence was measured for 10 seconds using a Turner 20/20 n (Turner BioSystems). A quenching reagent containing 50 mM HEPES pH 7.4, 16 mM MgSO4, 1 mM CDTA, 0.5% Tergitol NP-9, 0.015% dodecyltrimethylammonium bromide, 10 mM thiourea, 0.05% Mazu-DF-204 (PGP), and 1.5 mM ATP (Pharmacia) was added to the reactions to reduce the Renilla luciferase-mediated luciferase luminescence. To the quenching reagent, the competitive inhibitor methylether coelenterazine-h, methylether coelenterazine-hh or coelenteramide was titrated to either 10 μM or 100 μM in the quenching reagent. After the addition of the inhibitors, a second Renilla luciferase-mediated luminescence reading was taken. Unless otherwise specified, materials were obtained from Sigma-Aldrich.
The Ki values for each inhibitor in the presence of a lysing detergent and a quenching reagent is much greater (>100 μM versus 0.001 μM; about a 100,000 fold difference). The quenching agents described herein are effective in the presence of detergents used for cell lysis as well as other quenching agents.

The text below walks through data of patent publication US20080248511A1, “METHODS TO QUENCH LIGHT FROM OPTICAL REACTIONS” (priority 2007, published 2008).

Turning to methylether coelenterazine-h, the Ki was more than 100 µM.

As to methylether coelenterazine-hh, the Ki was approximately 100 µM.
